Literature values as cited in patent publication US20080096915A1, “COMPOSITIONS FOR THE TREATMENT OF METABOLIC DISORDERS” (Greenberg Traurig LLP, priority 2005, published 2008).

Conditions: in vivo

SMILES: CN(C)C(=N)N=C(N)N [Metformin]
- binding to plasma proteins: does not bind to plasma proteins
